Antibody variant affinities, Ab-14 light chain, assay 1

Values reported by Engelhart et al. 2022, doi:10.1038/s41597-022-01779-4 (FLAb copy).

All variants were tested on one target, the spike HR2 peptide PDVDLGDISGINAS (SARS-CoV-2).

Parent: Ab-14, a human scFv built as VH, a 15-residue (Gly4Ser)3 linker, VL. Only the CDRs of the light chain vary.
VH: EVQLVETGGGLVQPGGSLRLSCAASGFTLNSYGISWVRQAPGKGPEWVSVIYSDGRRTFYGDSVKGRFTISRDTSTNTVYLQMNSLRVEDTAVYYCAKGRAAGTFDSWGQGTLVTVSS
VL: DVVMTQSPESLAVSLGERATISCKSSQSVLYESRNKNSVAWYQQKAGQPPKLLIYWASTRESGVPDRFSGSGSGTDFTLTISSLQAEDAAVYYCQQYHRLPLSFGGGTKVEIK

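Phage display of a naive human antibody library on the peptide gave the parent. The library (AAYL50) carries one to three amino acid substitutions per variant, with no insertions or deletions. The scFvs were displayed on barcoded MATa yeast, the peptide on MATalpha yeast. Pairs that bind mate more often; barcode pairs of the diploids are counted by sequencing. Read counts were normalised to the haploid input and turned into Kd by a linear fit to BCL2-family pairs of known affinity, for each replicate. Mating was done three times.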

Changes read parent residue, position, new residue, counted from the first residue of the VL shown. Every variant below is changed at S28 of the VL (sequential numbering). Values are log10 of the apparent Kd in nM; lower means stronger binding. A pair that was not seen in that replicate is written "ND"; this usually means weak binding, but a binder can also be missed. As a blank, each scFv also met three strains without target: over library AAYL50, 18% of these pairings were detected, typically at 4.19 and seldom below 2.99. For reference, the parent read 0.65 as the reference entry and 1.68 as a member of this library.

The variant S28A/S62H/Y97F showed 3.11, 3.06, 3.87.
The variant S26Y/S28T showed 2.10, 2.07, 2.09.
The variant S25R/S28W/T59W showed 2.42, ND, ND.
The variant S25A/S28H/E32D showed 1.33, 1.16, 1.37.
The variant S28M/A40P/R60V showed ND, ND, ND.
The variant S25K/S28C/S103C showed ND, ND, ND.
The variant S28N/V29S/L100E showed ND, ND, ND.
The variant S28N/V39E showed ND, ND, ND.
The variant S28K/S33L/Q95L showed 2.71, 2.60, 3.96.
The variant K24H/S28Q showed ND, ND, 3.95.
The variant Q27S/S28E/S38A showed 0.45, 0.74, 0.63.
The variant S28H/N35I/S62H showed 1.65, 1.79, 1.93.
The variant S28C/R60H/S62C showed ND, ND, ND.
The variant S28I/E61Q/L102I showed 2.74, 2.78, 3.30.
The variant S28A showed 1.86, 1.74, 1.80.
The variant S28Y/W56C/A57C showed 3.60, 2.36, 4.22.
The variant S28W/V29I/T59K showed 3.67, 2.81, 3.38.
The variant S28V/S33H/W56L showed 2.47, 3.02, 2.99.
The variant S28A/H98W/S103D showed 2.22, 2.02, ND.
The variant S28M/S33K/R60D showed ND, ND, ND.
The variant K24V/S28N/L30Q showed ND, ND, ND.
The variant S28R/E61R showed ND, 3.46, ND.
The variant S28L/V29I/A57G showed 0.78, 0.86, 0.76.
The variant S28T/R60P/R99A showed 3.33, 2.51, 2.42.
The variant S28C/L30Q/Q96Y showed 2.58, 2.47, 2.55.
The variant S28Q/Y31L/E32N showed 0.70, 0.97, 0.80.
The variant S28W/K36V/L100E showed 3.11, 2.73, 3.34.
The variant S28N/K36A/S38R showed 0.83, 1.01, 1.36.
The variant S28R/A40H/P101H showed ND, ND, 3.98.
The variant S28M/E32N/Q96V showed ND, 3.62, ND.
The variant S28H/E32N/A40N showed 4.27, 4.39, ND.
The variant S28Q/S33F/N35F showed ND, 3.21, ND.
The variant S28Q/R34G/S62F showed 1.34, 1.14, 0.87.
The variant S26H/S28H/R34D showed 1.66, 1.75, 1.74.
The variant S28L/A40L/Y97C showed 4.21, 3.29, 5.98.
The variant S28G/E32H/R99C showed ND, 3.20, ND.
The variant S28L/S38C/T59E showed ND, 4.86, 5.48.
The variant S25M/Q27C/S28V showed 2.02, 1.98, 1.85.
The variant S28Q/A40R showed 4.88, ND, ND.
The variant S28Q/A57R showed 3.29, 3.88, 3.77.
The variant K24T/S28P/N37D showed 1.02, 1.26, 1.01.
The variant S28T/N37V/R60Q showed ND, ND, ND.
The variant S28L/L30H/Y31Q showed 0.56, 0.82, 0.69.
The variant S28E/R34E/N37F showed 1.00, 0.82, 0.74.
The variant S28Q/K36F/N37T showed 3.75, 3.16, 4.00.
The variant S28P/S38L/V39H showed 5.32, 4.09, ND.

Picked from the list: the 3 lowest averages where every replicate gave a value.

{"changes": "Q27S/S28E/S38A", "log10 Kd, replicates": "0.45, 0.74, 0.63"}
{"changes": "S28L/L30H/Y31Q", "log10 Kd, replicates": "0.56, 0.82, 0.69"}
{"changes": "S28L/V29I/A57G", "log10 Kd, replicates": "0.78, 0.86, 0.76"}